# Apparent affinities of Ab-14 variants for a coronavirus HR2 peptide

Values reported by Engelhart et al. 2022, doi:10.1038/s41597-022-01779-4 (FLAb copy).

Binding partner: SARS-CoV-2 spike HR2 peptide, sequence PDVDLGDISGINAS.

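The parent was found by panning a naive human phage display library on the peptide. The library (AAYL50) carries one to three amino acid substitutions per variant, with no insertions or deletions. Affinity was read by AlphaSeq, a pooled yeast mating assay with surface-displayed partners. The frequency of each diploid, read from paired DNA barcodes, reflects how well the two displayed proteins bind. The ratio of observed to expected reads was calibrated, replicate by replicate, on BCL2-family standards whose Kd was known from biolayer interferometry. The assay was run in three technical replicates.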

Parent scFv Ab-14: VH joined to VL by the linker GGGGSGGGGSGGGGS. Changes lie in the light chain CDRs alone.
VH: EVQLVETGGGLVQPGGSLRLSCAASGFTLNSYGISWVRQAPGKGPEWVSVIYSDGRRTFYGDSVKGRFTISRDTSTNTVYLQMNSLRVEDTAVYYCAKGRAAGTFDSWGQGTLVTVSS
VL: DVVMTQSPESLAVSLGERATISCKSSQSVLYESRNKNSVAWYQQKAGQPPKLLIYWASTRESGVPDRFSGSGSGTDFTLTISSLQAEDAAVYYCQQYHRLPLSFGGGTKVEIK

Substitutions are numbered in sequence along the VL above, starting at 1 (not Kabat). Scale: log10 of Kd in nM, estimated from mating counts; low values are strong binders. A mean of the replicates is given; it leaves out those without a signal. An entry "nd" has no value in the source: the pair was not observed among the diploids in any replicate. This suggests poor binding but is not conclusive. The list is sorted by this average, lowest first, undetected variants last. For reference, the parent read 0.65 as the reference entry and 1.68 as a member of this library.

Read-out 0.79 (3 of 3 replicates), from R34P Q96K R99H.
Read-out 0.81 (3 of 3 replicates), from Q27I Y31H S33N.
Read-out 1.01 (3 of 3 replicates), from S28M Q96N R99A.
Read-out 1.23 (3 of 3 replicates), from S25T S33H V39L.
Read-out 1.56 (3 of 3 replicates), from S33P L100E L102T.
Read-out 1.67 (3 of 3 replicates), from K24G Y31I K36M.
Read-out 1.84 (3 of 3 replicates), from Y31T N37M Q95L.
Read-out 2.25 (3 of 3 replicates), from S33A E61W R99W.
Read-out 2.45 (2 of 3 replicates), from V29Y R34C S58A.
Read-out 2.62 (3 of 3 replicates), from E32P S38M H98F.
Read-out 2.81 (2 of 3 replicates), from S26Q S38F P101W.
Read-out 2.95 (2 of 3 replicates), from R34P S38F S62K.
Read-out 2.95 (2 of 3 replicates), from S58G S62C Q96S.
Read-out 2.97 (1 of 3 replicates), from S33M S38Y R99I.
Read-out 3.07 (2 of 3 replicates), from V29H L30D S58L.
Read-out 3.58 (3 of 3 replicates), from V39C S103Q.
Read-out 3.63 (3 of 3 replicates), from S28D N37Q L100E.
Read-out 3.68 (2 of 3 replicates), from K24P Q27T.
Read-out 3.88 (2 of 3 replicates), from N35P S38G L100V.
Read-out 4.20 (1 of 3 replicates), from S25F R60F L100T.
Read-out 4.39 (1 of 3 replicates), from V29R Q95Y P101R.
Read-out 4.49 (3 of 3 replicates), from E32C K36I Q96F.
Read-out 4.60 (2 of 3 replicates), from S33K Y97N R99W.
Read-out 4.66 (2 of 3 replicates), from V29Y E32C A40Y.
Read-out nd (0 of 3 replicates), from V39A L100V S103Y.
Read-out nd (0 of 3 replicates), from S25Y S28F S58K.
Read-out nd (0 of 3 replicates), from N35Q T59P Y97F.
Read-out nd (0 of 3 replicates), from Y31G A57I P101R.
Read-out nd (0 of 3 replicates), from N35A A40Y E61P.
Read-out nd (0 of 3 replicates), from Q95G Y97T.
Read-out nd (0 of 3 replicates), from S28P S33T V39F.

Empty control strains, which show no peptide, gave a signal in 18% of pairings with library AAYL50; the median was 4.19 and 95% of these signals were weaker than 2.99. No background was subtracted.